# Reference: PMC12015242, “A universal cannabinoid CB1 and CB2 receptor TR-FRET kinetic ligand-binding assay” (Frontiers in Pharmacology, 2025)
# Chains of the proteins cited; added tags and fusions are not shown. Residues count along the entry.
# UniProt P21554, 91-472: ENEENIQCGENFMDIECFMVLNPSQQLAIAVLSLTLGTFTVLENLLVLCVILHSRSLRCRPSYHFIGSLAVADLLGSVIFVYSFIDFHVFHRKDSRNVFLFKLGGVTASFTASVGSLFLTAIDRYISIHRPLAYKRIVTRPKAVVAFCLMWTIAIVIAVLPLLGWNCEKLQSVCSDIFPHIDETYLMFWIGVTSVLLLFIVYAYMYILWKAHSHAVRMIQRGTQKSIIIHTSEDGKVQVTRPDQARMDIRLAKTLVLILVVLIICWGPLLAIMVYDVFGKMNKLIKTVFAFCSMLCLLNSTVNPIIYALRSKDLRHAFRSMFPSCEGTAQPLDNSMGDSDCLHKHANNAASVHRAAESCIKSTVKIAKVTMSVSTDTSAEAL
# How the values were obtained:
# [1] = molecular target: T1, human CB1R (SNAP-CB1R91–472) (Homo sapiens, UniProt P21554)
# [2] = molecular target: T1, human CB1R (SNAP-CB1R91–472); remark: listed apart in the source
substance,measurement,setting,value
SR 144528,pK i,[1],6.43 ± 0.01
same,pK d (kinetic),[2],6.43 ± 0.01
same,pKd (kinetic),[2],6.72 ±0.02
